Data published in patent publication US8802596B2, “Multi-functional ionic liquid compositions for overcoming polymorphism and imparting improved properties for active pharmaceutical, biological, nutritional, and energetic ingredients” (Board of Trustees of the University of Alabama, priority 2005, dated 2014).

Conditions: in words

Substance: didecyldimethylammonium N-[4-[[(2-amino-1,4-dihydro-4-oxo-6-pteridinyl)methyl]amino]benzoyl]-L-glutamate
- Solubility / miscibility in water: lacks miscibility with water and hexane
- Solubility in organic solvents / other media: soluble in chloroform, acetone, DMSO
